This note sets out measurements from PubChem BioAssay AID1259400 (National Center for Advancing Translational Sciences (NCATS), 2018).

Chains of the proteins cited; added tags and fusions are not shown.
UniProt Q9HBX9, whole entry: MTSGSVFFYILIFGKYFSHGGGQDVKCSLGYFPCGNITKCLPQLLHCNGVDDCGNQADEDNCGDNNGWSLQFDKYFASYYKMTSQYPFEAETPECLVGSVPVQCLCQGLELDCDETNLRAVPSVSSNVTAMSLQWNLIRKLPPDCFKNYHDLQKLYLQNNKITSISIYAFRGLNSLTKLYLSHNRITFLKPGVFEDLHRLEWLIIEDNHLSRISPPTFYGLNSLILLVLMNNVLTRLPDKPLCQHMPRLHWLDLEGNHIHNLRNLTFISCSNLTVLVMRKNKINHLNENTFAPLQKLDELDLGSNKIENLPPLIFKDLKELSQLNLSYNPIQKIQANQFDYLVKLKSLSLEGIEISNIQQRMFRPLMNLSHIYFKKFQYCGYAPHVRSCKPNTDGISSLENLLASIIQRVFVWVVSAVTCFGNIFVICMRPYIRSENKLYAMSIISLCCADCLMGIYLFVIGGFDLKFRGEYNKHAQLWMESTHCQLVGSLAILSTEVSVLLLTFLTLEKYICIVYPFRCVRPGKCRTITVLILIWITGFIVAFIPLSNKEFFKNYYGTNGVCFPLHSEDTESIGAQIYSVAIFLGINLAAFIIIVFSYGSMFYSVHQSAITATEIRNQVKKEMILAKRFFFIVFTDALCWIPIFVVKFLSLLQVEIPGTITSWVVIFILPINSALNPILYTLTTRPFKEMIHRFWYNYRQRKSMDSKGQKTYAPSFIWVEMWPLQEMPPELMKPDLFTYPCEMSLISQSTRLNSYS

Molecules are shown by their SMILES. Only a part is listed here, and it is no random draw. Activity calls are given as the source filed them.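 The calls were made as follows: active = activity change of -60% or lower, but not beyond a set lower limit; inconclusive = change between -60% and -40%, or beyond the set limit; inactive = change above -40%.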
% is scaled to controls: 0 for no effect and ±100 for the full control effect.

The assay concerns the target Relaxin receptor 1 (Homo sapiens) (UniProt Q9HBX9). Briefly: qHTS Assay for Antagonists of the Relaxin Receptor RXFP1. The conditions noted are these: HEK293-RXFP1, relaxin-stimulated cAMP HTRF, 30 min; at 57.5 µM; stronger effect = lower value. From the text: The relaxin hormone is involved in the variety of biological functions in normal tissues and diseases. The role of relaxin is well-established in female reproduction and parturition, mammary gland and endometrial development, maintenance of myometrial quiescence during pregnancy. Relaxin signaling through its G protein-coupled receptor (GPCR) RXFP1 results in ECM remodeling through regulation of collagen deposition, cell invasiveness, proliferation and overall tissue homeostasis. […] Recombinant human relaxin (rhRlx) is currently being tested in clinical trials as a protective agent in congestive heart failure, in treating severe preeclampsia, and as an anti-fibrotic agent in various organs. […] Upon relaxin binding RXFP1 activation leads to the activation of adenylate cyclase (AC) via G?s. cAMP will activate PKA, which phosphorylates many signaling proteins. […] RXFP1 activation by relaxin in presence of various concentrations of tested compounds was assayed by changes in cAMP levels as detected with a time-resolved fluorescence energy transfer (TR-FRET) cAMP detection kit.
For the primary screening, we used HTRF(R) (Homogenous Time-Resolved Fluorescence) cAMP HiRange assay (Cisbio Bioassays, 62AM6PEJ). […] The EC50 values were determined from concentration-response data modeled with the standard Hill equation. […]
Consider `CC1CCC(C(C)C)C(OP(=O)(Nc2ccccn2)c2ccccc2)C1` (stereo unspecified), for which the activity change, negative = inhibition was inactive: -31.1%.
